Patent publication US12528826B2, “[1,4]oxazepino[2,3-c]quinolinone derivatives as BCL6 inhibitors” (Cancer Research Technology Limited, priority 2019, dated 2026)

Molecular target: Trx-6×His-BCL6 (human BCL6 BTB domain covering amino-acid sequence 5-129) (Homo sapiens, UniProt P41182)
Assay: HTRF assay (BCL6 / BCOR peptide)
Conditions: 1 nM Trx-6×His-BCL6, 300 nM BCOR-AF633 peptide, 2 hours incubation at room temperature; tested form: 1:1 mixture of the (1R,5R) and (1S,5S) a

Compound: Cn1c(=O)c2c(c3cc(Nc4nc(N5CC6(C)CC6(CO)C5)ncc4Cl)ccc31)N[C@@H](C1CC1)C(F)(F)CO2 (stereo partly shown)
- HTRF avg pIC50: 8.26
